Assay [1] addresses T1, 5-hydroxytryptamine receptor 2C (Homo sapiens, UniProt P28335). Kind of assay: Agonist activity at human 5-HT2C INI receptor expressed in human Flp-In-293 cells assessed as induction of calcium flux incubated for 1 hr by Fluo-4 direct dye based FLIPR assay relative to 5-HT. The format is functional, cell-based. To be noted: filed as agonist. The gist of the method:
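Calcium flux in Flp-In-293 cells stably expressing the human 5-HT2C INI isoform, Fluo-4 Direct loading for 1 h at 37 °C. Drug dilutions identical to those in the parallel Tango assay, 300 s read at 1 read/s, normalized to % 5-HT. Triplicate, mean ± SEM (n = 3). Bias factors were calculated from change in relative activity, log(Emax/EC50).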

Protein sequences, listed by entry. Tags and fused reporters are not part of them. Lines headed by an entry give the natural chain unless they say otherwise; changes in a name come on top.
UniProt P28335: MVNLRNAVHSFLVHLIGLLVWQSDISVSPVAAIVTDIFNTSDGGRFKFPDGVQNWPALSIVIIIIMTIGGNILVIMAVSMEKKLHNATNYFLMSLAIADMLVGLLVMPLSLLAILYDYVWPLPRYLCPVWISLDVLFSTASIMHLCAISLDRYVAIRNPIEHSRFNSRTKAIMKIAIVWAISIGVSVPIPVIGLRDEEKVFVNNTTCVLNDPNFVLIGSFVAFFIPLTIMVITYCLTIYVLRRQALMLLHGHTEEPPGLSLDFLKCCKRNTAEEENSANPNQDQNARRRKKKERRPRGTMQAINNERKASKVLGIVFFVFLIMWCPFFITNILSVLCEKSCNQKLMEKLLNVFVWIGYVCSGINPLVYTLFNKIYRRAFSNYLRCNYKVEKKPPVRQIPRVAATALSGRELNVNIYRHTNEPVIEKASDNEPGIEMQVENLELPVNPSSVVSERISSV
UniProt P28223, whole entry: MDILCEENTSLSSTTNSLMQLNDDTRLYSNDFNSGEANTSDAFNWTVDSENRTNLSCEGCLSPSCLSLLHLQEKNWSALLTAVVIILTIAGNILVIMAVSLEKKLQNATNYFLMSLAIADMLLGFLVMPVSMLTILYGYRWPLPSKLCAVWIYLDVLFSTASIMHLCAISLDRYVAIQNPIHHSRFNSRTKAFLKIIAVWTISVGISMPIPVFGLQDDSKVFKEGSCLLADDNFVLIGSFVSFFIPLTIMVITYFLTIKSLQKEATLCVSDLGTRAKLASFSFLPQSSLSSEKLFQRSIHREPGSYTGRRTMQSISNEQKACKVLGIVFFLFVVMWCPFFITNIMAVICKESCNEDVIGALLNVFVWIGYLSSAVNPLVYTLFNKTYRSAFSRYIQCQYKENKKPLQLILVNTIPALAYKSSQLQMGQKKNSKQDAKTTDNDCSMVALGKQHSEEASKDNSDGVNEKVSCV
UniProt P41595, whole entry: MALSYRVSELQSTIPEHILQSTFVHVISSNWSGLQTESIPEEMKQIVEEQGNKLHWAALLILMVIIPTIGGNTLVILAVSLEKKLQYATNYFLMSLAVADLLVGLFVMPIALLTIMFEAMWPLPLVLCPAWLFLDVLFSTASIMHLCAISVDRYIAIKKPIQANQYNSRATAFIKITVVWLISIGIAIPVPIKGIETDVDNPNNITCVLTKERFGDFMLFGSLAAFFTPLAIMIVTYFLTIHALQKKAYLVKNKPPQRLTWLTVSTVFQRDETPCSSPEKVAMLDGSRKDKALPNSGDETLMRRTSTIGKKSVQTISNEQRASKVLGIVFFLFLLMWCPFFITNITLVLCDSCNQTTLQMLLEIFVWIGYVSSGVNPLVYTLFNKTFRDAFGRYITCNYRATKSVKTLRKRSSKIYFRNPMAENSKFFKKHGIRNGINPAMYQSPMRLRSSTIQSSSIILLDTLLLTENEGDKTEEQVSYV

In assay [2] the target is T2, 5-hydroxytryptamine receptor 2A (Homo sapiens, UniProt P28223). To be noted: Flp-In-293, time 1.0 hrs.
The target in assay [3] is T1, 5-hydroxytryptamine receptor 2C. Kind of assay: Agonist activity at human 5-HT2C INI receptor expressed in human HEK293 cells assessed as induction of beta-arrestin-2 recruitment incubated for 20 hrs by Tango assay relative to 5HT. The format is cell-based. The gist of the method: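 Tango assay in HTLA cells (HEK line expressing TEV-fused β-arrestin-2 and tTA-driven luciferase) transfected with 5-HT2C INI–tTA fusion carrying a TEV site. Cells were stimulated with the same dilutions used for FLIPR, 20 h at 37 °C and 5% CO2, then lysed with Bright-Glo for 20 min at room temperature and read by luminescence. Data normalized to % 5-HT and fitted sigmoidally; n = 3 in triplicate. Bias from log(Emax/EC50).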
On the technique in general: Arrestin recruitment assays detect the binding of arrestin to an activated receptor.

The target in assay [4] is T2, 5-hydroxytryptamine receptor 2A. Kind of assay: Agonist activity at human 5-HT2A receptor expressed in human Flp-In-293 cells assessed as induction of calcium flux incubated for 1 hr by Fluo-4 direct dye based FLIPR assay relative to 5-HT. The format is functional, cell-based. (In general: Calcium flux is commonly read through the fluorescence of an indicator in the cells.)

The target in assay [5] is T1, 5-hydroxytryptamine receptor 2C. Nature of the assay: Agonist activity at human 5-HT2C receptor expressed in human Flp-In-293 cells assessed as induction of calcium flux incubated for 1 hr by Fluo-4 direct dye based FLIPR assay relative to 5-HT. The format is functional, cell-based. The following applies: filed as agonist.
For assay [6], the target named is 5-hydroxytryptamine receptor 2B (Homo sapiens, UniProt P41595). Nature of the assay: Agonist activity at human 5-HT2B receptor expressed in human Flp-In-293 cells assessed as induction of calcium flux incubated for 1 hr by Fluo-4 direct dye based FLIPR assay relative to 5-HT. It is filed as functional, cell-based.

Activity calls are given as the source filed them. No cut-off for these calls is given here.

Consider `C=CCOc1ccc2oc(CC)cc2c1[C@H]1C[C@@H]1CN`, for which the Emax (commonly the maximal effect, on the per cent scale that the assay sets) in assay [1] came out at 94%; in assay [3] it was 35%; in assay [5], 102%; in assay [6], 19%. Moreover, the pEC50 entry in assay [2] is “inactive”. Further, in assay [4], the Emax entry was “inactive”.

The record behind these values is ChEMBL document CHEMBL4680082 (J Med Chem, 2016).
